The structures appear in SMILES notation. This is a selection; strong and weak results do not stand in their true shares. The source made the active and inactive calls.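 Rule for the calls: active = Every replicate reaches about 75%, or at least half do and their mean reaches it too (limit read from the data); inconclusive = At least half of replicates reach the limit but their mean does not; inactive = Under half of replicates reach the limit.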

A short description of the test: INS-1E beta cell survival under cytokines – luminescence, primary screen (AID 435005).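 Note: 0% = cytokine-treated negative control wells and 100% = positive control rescue; higher means more ATP so stronger rescue from cytokine killing.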 To be noted: INS-1E cytokine-induced death, ATP luminescence, 48 h; stronger effect = higher value; percent of positive-control rescue, neutral wells zero; concentration not given here.
For the compound `O=[N+]([O-])c1ncn(CCn2ncnc2[N+](=O)[O-])n1`, the protection from apoptosis is inactive: -8.19%.
With `O=C(O)CNc1ccc([As](=O)(O)O)cc1` the figure was inactive: -4.48%.
With `Nc1ccc2c(ccc3cccnc32)n1.O=[N+]([O-])c1cc([N+](=O)[O-])c(O)c([N+](=O)[O-])c1` the figure was inactive: -5.81%; with `CCOC(=O)c1ccc(NP(C)(=O)Oc2ccc(Cl)cc2)cc1` (configuration not stated), inactive: 3.28%.
The value for `O=C(Nc1cc([As](=O)(O)O)ccc1O)c1ccccc1` was inactive: -6.86%; that for `CP(=O)(OC12CC3CC(CC(C3)C1)C2)OC12CC3CC(CC(C3)C1)C2` was inactive: -2.03%.
For the compound `COc1ccccc1OP(C)(=O)Nc1ccccc1Br` (configuration not stated), the protection from apoptosis was inactive: 2.15%.
With `Nc1ccc([As](=O)(O)c2ccc(N)cc2)cc1` the figure was inactive: -4.53%; with `CC(C)(C)c1ccc(OP(C)(=O)O)cc1`, inactive: -6.71%.
For `CCN(/C(=N/P(=O)(N1CCOCC1)N1CCOCC1)N1CCOCC1)c1ccc(OC)cc1`, the protection from apoptosis was inactive: 0.761%.
`CP(=O)(Nc1ccc(Cl)cc1)Oc1ccc(F)cc1` (configuration not stated): the protection from apoptosis was inactive: -7.91%.
The value for `CC(C)=N/N=C(\N)N[N+](=O)[O-]` was inactive: 1.27%.
With `CN(C)C(=O)c1c([N+](=O)[O-])cc([N+](=O)[O-])cc1[N+](=O)[O-]` the figure was inactive: -3%; with `CN(C)C(=O)OCCc1n(C)cc[n+]1C`, inactive: 1.02%; with `CC1CCN(C(=O)Oc2c(Cl)cc(Cl)c3cccnc23)CC1`, inactive: -6.18%.
With `CCN(CC)CC(O)COC(=O)C(O)(c1ccccc1)C1CCCCC1` (configuration not stated) the figure was inactive: 0.339%; with `COc1ccc(C2=NCC(CBr)S2)cc1` (configuration not stated), inactive: -5.91%; with `COc1ccc(OP(C)(=O)Nc2ccc(Br)cc2)cc1` (configuration not stated), inactive: -11.1%.
Consider `CC(=O)N1C2C3N(C(C)=O)C1C1N(C(C)=O)C(C(N1C(C)=O)N3C(C)=O)N2C(C)=O`, for which the protection from apoptosis was inactive: -17.3%.
The value for `O=[N+]([O-])c1cccc2n[nH]nc12` was inactive: 9.42%.
The value for `COc1ccccc1OP(C)(=O)Nc1c(C)n(C)n(-c2ccccc2)c1=O` (configuration not stated) was inactive: 3.89%; that for `O=C(OCCCN1CCCC1)C(O)(c1ccccc1)C1CCCCC1` (configuration not stated) was inactive: -1.07%.
With `Cc1ccc(NP(=O)(Oc2ccccc2)Oc2ccccc2)nc1` the figure was inactive: 2.83%.
Take `CP(=O)(Oc1ccccc1)N1CCOC1=O` (configuration not stated): the protection from apoptosis was inactive: -12.9%.
With `CCc1ccc(OP(C)(=O)Nc2cccnc2)cc1` (configuration not stated) the figure was inactive: 0.392%.
As to `O=[N+]([O-])c1cc([N+](=O)[O-])c(CCNc2ccccc2)c([N+](=O)[O-])c1`, the protection from apoptosis is inactive: 18.6%.
The value for `CCc1nc2c(n1)c1c(non1O)c1c2no[n+]1[O-]` was inactive: -13.4%.

(Values after PubChem BioAssay AID435005 (Broad Institute, 2010).)
